Antibody variant affinities, Ab-95 light chain, assay 2

Binding partner: SARS-CoV-2 spike HR2 peptide, sequence PDVDLGDISGINAS.

The variants keep the heavy chain, the linker and the frameworks of Ab-95 (scFv order VH, a (GGGGS)3 linker, VL).
VH: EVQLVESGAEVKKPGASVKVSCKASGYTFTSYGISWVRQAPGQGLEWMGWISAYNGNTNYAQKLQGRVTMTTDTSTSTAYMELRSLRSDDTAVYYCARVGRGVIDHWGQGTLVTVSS
VL: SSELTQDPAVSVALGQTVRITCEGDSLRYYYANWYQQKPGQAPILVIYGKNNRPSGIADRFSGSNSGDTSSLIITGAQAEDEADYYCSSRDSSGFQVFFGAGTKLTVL

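The parent was found by panning a naive human phage display library on the peptide. AAYL52 was designed without a model: most single CDR substitutions and a random sample of double and triple ones. AlphaSeq pools MATa yeast showing the antibodies with MATalpha yeast showing the peptide. The frequency of each diploid, read from paired DNA barcodes, reflects how well the two displayed proteins bind. Read counts were normalised to the haploid input and turned into Kd by a linear fit to BCL2-family pairs of known affinity, for each replicate. There are three technical replicates.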

Variants are written as CDR1, CDR2 and CDR3 of the light chain (limits as in the source). Parent: EGDSLRYYYAN, GKNNRPS, SSRDSSGFQVF. The Kd shown is the geometric mean over detected replicates; a lower Kd is a better binder. A pair that was not seen in any replicate is written "nd"; this usually means weak binding, but a binder can also be missed. Order: sorted from the lowest average up, undetected variants last.

CDR-L1 | CDR-L2 | CDR-L3 | Kd (apparent) | detected | empty controls
EGDSLRYGYAN | GQNNKPS | SSRDSSGFQVF | 5.7 nM | 3/3 | 4/9
EPDSLNYYYAN | GKNMRPS | SSRDSSGFQVF | 55 nM | 3/3 | 4/9
KGDSLRYYYAN | GKNNRPS | DSRDSSGFQVG | 71 nM | 3/3 | 4/9
VGDSLRYYYAN | GKNNRPS | SSRDSSGRQVF | 110 nM | 3/3 | 6/9
EGDSLRYYMAN | GKNNRPS | SSRTSSGFVVF | 170 nM | 3/3 | 5/9
EGDSLKYYYAN | GKNNRPS | SSRDSSGAFVF | 340 nM | 3/3 | 5/9
EGDSLRYYYAN | GKNNRPY | SSRDSSGFTVF | 360 nM | 3/3 | 2/9
EGDSLRYYYAN | GKNNRPS | SSRDSSGDQVC | 360 nM | 3/3 | 2/9
EGDSARYYYAN | GKNNRPS | YSRDGSGFQVF | 720 nM | 2/3 | 0/9
EGRSLRYYYAN | GKNQRPS | SSRDSSGFEVF | 850 nM | 3/3 | 2/9
EGDNLRYYYAN | GKNNRPS | SSGDSSGFQVF | 990 nM | 1/3 | 0/9
EGDSLRYNYAN | GKLNRPS | SSRDSSQFQVF | 1.7 µM | 2/3 | 3/9
EGDQLRYYYAN | GKNNRPS | SSRDSKGFQMF | 2.2 µM | 2/3 | 2/9
EGDPLRYYYAN | GKHNRPS | SSRDSSGFQVS | 2.4 µM | 3/3 | 0/9
EWDSLRYYYAN | GYNNRPS | ISRDSSGFQVF | 2.6 µM | 2/3 | 3/9
EGDSLRYYRAT | GKNNRPS | SSRDSSKFQVF | 2.7 µM | 1/3 | 5/9
EGNSLSYYYAN | GKNNRPS | SSRDSKGFQVF | 2.9 µM | 3/3 | 4/9
EGCSLRYYYAN | GKNNRES | SSRDSTGFQVF | 3.6 µM | 3/3 | 2/9
EGDSLRYYYAP | GKNNRIS | SSRDSSKFQVF | 3.7 µM | 2/3 | 0/9
EGSSLRYYYAS | GKNNRPS | SSRDTSGFQVF | 3.7 µM | 3/3 | 2/9
EGDSIRYYYAN | GKNVRPS | SSDDSSGFQVF | 3.9 µM | 2/3 | 2/9
ELDSLRYYYAH | GKNNRCS | SSRDSSGFQVF | 4.1 µM | 3/3 | 3/9
EGDSLRYYYAN | LKNNRPS | SVRQSSGFQVF | 7.0 µM | 1/3 | 0/9
EGDSLYYYYAN | GKNNVPS | SWRDSSGFQVF | 7.5 µM | 2/3 | 3/9
EGRSLRYYYCN | GKNNRPS | SSRDSSGFQVC | 11 µM | 3/3 | 1/9
EGDSLRYYYAN | GKNNRPS | TSRDSMGFSVF | 13 µM | 3/3 | 4/9
EGDVLRYYYAN | GKNNRPS | DERDSSGFQVF | 13 µM | 1/3 | 1/9
EGDSLFYYYTE | GKNNRPS | SSRDSSGFQVF | 14 µM | 1/3 | 2/9
EGDSLRYYYVN | GKNNRPS | SSRDSSGFNVQ | 16 µM | 2/3 | 0/9
EGDGNRYYYAN | TKNNRPS | SSRDSSGFQVF | 16 µM | 2/3 | 3/9
EGDSLRYYYAK | QKNNRPS | SSRDSSGFQVF | 17 µM | 2/3 | 2/9
EGDSLRYYYAN | GKNNRPS | SSRDSSYAQVF | 23 µM | 1/3 | 3/9
EGDSFRYYIAN | GKNNRPS | SHRDSSGFQVF | 33 µM | 1/3 | 1/9
EGDSLRWYYAN | GKNNRPS | SSRDSLGFQQF | 62 µM | 1/3 | 3/9
EGDSLRYAYAN | LKNNRPS | SSRDSDGFQVF | 87 µM | 2/3 | 1/9
EGDSLLYYYAN | GKNNRPS | CSRDSSGFFVF | 260 µM | 1/3 | 2/9
EGDSLRYYYEN | GKNNRPS | SSRDSWGFQYF | nd | 0/3 | 3/9
EGDVLRYYYAN | GKNNKPS | SSRCSSGFQVF | nd | 0/3 | 0/9
CLDSLRYYYAN | GKNNRPS | SSRDLSGFQVF | nd | 0/3 | 1/9
EGDSGRKYYAN | GKNNRPS | SSRQSSGFQVF | nd | 0/3 | 2/9
EGDSLRYYYAA | GKNNRPN | SSSDSSGFQVF | nd | 0/3 | 0/9
EGDSLRYYYAN | GKNNRTS | SSKDSSGFQVF | nd | 0/3 | 1/9
EGDSLRYKYAN | GKNNRPS | QSRDSSGKQVF | nd | 0/3 | 3/9
EGDSTRYYYAN | GKNNRYS | SSRDSSGFQVK | nd | 0/3 | 0/9
EWDSLRYYYAN | GKNNRPH | SSKDSSGFQVF | nd | 0/3 | 2/9

Excerpt, the final 6 entries:

{"CDR-L1": "EGDSGRKYYAN", "CDR-L2": "GKNNRPS", "CDR-L3": "SSRQSSGFQVF", "Kd (apparent)": "nd", "detected": "0/3", "empty controls": "2/9"}
{"CDR-L1": "EGDSLRYYYAA", "CDR-L2": "GKNNRPN", "CDR-L3": "SSSDSSGFQVF", "Kd (apparent)": "nd", "detected": "0/3", "empty controls": "0/9"}
{"CDR-L1": "EGDSLRYYYAN", "CDR-L2": "GKNNRTS", "CDR-L3": "SSKDSSGFQVF", "Kd (apparent)": "nd", "detected": "0/3", "empty controls": "1/9"}
{"CDR-L1": "EGDSLRYKYAN", "CDR-L2": "GKNNRPS", "CDR-L3": "QSRDSSGKQVF", "Kd (apparent)": "nd", "detected": "0/3", "empty controls": "3/9"}
{"CDR-L1": "EGDSTRYYYAN", "CDR-L2": "GKNNRYS", "CDR-L3": "SSRDSSGFQVK", "Kd (apparent)": "nd", "detected": "0/3", "empty controls": "0/9"}
{"CDR-L1": "EWDSLRYYYAN", "CDR-L2": "GKNNRPH", "CDR-L3": "SSKDSSGFQVF", "Kd (apparent)": "nd", "detected": "0/3", "empty controls": "2/9"}

In this assay the parent's reference entry averaged 200 nM; its copy inside this library read 180 nM. As a blank, each scFv also met three strains without target: over library AAYL52, 28% of these pairings were detected, typically at 8.2 µM and seldom below 800 nM. Also given: how often the same scFv was detected with the empty control strains.

Source: Engelhart et al. 2022 (doi:10.1038/s41597-022-01779-4), MIT Lincoln Laboratory and A-Alpha Bio; data file from the FLAb repository.